Data: PMC8359458 (British Journal of Clinical Pharmacology, 2021)

Parameters: species or system human
Conditions: in vivo

CC(=O)C[C@@H](c1ccccc1)c1c(O)c2ccccc2oc1=O [S‐warfarin]
within‐subject variation in Cmax and AUC: ≤ 14.2%
